# B1: BMP-2: bone morphogenic protein-2, positive control that induces the differentiation of the osteoblasts (protein, UniProt P12643 283-396, looked up)
# Bone morphogenetic protein 2: QAKHKQRKRLKSSCKRHPLYVDFSDVGWNDWIVAPPGYHAFYCHGECPFPLADHLNSTNHAIVQTLVNSVNSKIPKACCVPTELSAISMLYLDENEKVVLKNYQDMVVEGCGCR
# Test system: MC3T3 cells
# Assay: Bone formation study, alkaline phosphatase (ALP) assay
# Type: cell-based, murine
# Conditions: 30 ng/ml; 14 days
# Text: The many and varied osteoblast culture systems that have been developed include cultures containing osteoblast or osteoblast-like cells from different species, bones of different ages, and a variety of anatomical sites and pathological states. Systems have also been developed for specific cell populations, such as osteoprogenitor cells and osteocytes. Several recent articles have also discussed various osteoblast cell culture models and provide some critical commentaries about their use (Marie, 1994; Rodan et al. 1994; Gundle & Beresford, 1995, Parfitt, 1995; Roby, 1995). In the present invention MC3T3 cell line was used. These cells are murine osteogenic mesenchymal precursor cells, which can be differentiated into osteoblasts by ascorbic acid and beta-glycerol phosphate.
# MC3T3 cell lines were used for the bone formation studies. These cells are murine osteogenic mesenchymal precursor cells, which can be differentiated into osteoclasts by ascorbic acid and beta-glycerol phosphate.
# The osteoblasts (MC3T3 cells) were seeded at a density of 75000 cells per well in 24 plates. The cells were culture for one day before the plant extracts were added. […]
# At the end of the culture period, osteoblast bone formation was evaluated by alkaline phosphatase assay (ALP assay) FIG. 7 and the proliferation by Alamar Blue assay (FIG. 8)
molecule,measurement,value
B1,ALP activity compared to the negative control (without AA and bG),induced

# Reference: patent publication US20090317501A1, “Pinus Pinea Plant Extracts For Treating Osteoporosis and the Extraction Process Thereof” (priority 2006, published 2009)
